# Measured values as given in PubChem BioAssay AID758 (NMMLSC, 2007).
# Only a part is listed here, and it is no random draw. Some results for these compounds are left out of this collection, so the calls shown say nothing about other tests. The source made the active and inactive calls.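 Rule for the calls: active = fluorescent GTP binding to Rab7 beads changed by at least 20 points from the 100% baseline, either direction, mostly lower; inconclusive = compound itself probably fluorescent, or too few beads counted; inactive = the rest.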
# Tested on: Rab7 GTPase wild type (dog), Bodipy-FL-GTP binding
# Assay: wildtype dog Rab7 nucleotide binding alteration – biochemical, multiplex bead flow cytometry, primary screen (AID 758);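 note: median green fluorescence of bound Bodipy-FL-GTP per Rab7 bead population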
# Conditions: GST-Rab7 beads, fluorescent GTP binding, at 10 µM, actives lie on both sides, untreated = 100%, excess cold GTP = 0%
row,Compound,GTP binding activity (percent of control)
1,CC(C)N1C(=O)CC2(CCN(CCOC(=O)C(O)(c3ccccc3)c3ccccc3)CC2)C1=O,inactive: 102%
2,O=C(NCC1(N2CCCCC2)CCCCC1)c1cc([N+](=O)[O-])ccc1Cl,inactive: 98%
3,C=CCN1CCN(CCOC(=O)C(O)(c2ccccc2)c2ccccc2)CC1,inactive: 97%
4,CCN1CCCC(OC(=O)C2(O)c3ccccc3C=Cc3ccccc32)C1 (centres undefined),inactive: 97%
5,CN(C)C1CCCC1OC(=O)C(O)(c1ccccc1)c1ccccc1 (centres undefined),inactive: 102%
6,Cc1ccccc1C(=O)NCC1(N2CCCCC2)CCCCC1,inactive: 99%
7,COc1cccc(C(=O)NCC2(N3CCCCC3)CCCCC2)c1,inactive: 105%
8,CN(C)c1cccc(C(=O)NCC2(N(C)C)CCCCC2)c1,inactive: 100%
9,O=C(OC1CN2CCC1CC2)C(CO)(c1ccccc1)c1ccccc1 (centres undefined),inactive: 99%
